Where only a bound is given, the exact number is not on record here.

As usually defined, the IC50 is the concentration that inhibits the measured activity by half. Lower therefore signals higher potency.

For the assay, the target named is T1, Phosphatidylinositol 4,5-bisphosphate 3-kinase catalytic subunit delta isoform (Homo sapiens, UniProt O00329).
T1 sequence (O00329 whole entry): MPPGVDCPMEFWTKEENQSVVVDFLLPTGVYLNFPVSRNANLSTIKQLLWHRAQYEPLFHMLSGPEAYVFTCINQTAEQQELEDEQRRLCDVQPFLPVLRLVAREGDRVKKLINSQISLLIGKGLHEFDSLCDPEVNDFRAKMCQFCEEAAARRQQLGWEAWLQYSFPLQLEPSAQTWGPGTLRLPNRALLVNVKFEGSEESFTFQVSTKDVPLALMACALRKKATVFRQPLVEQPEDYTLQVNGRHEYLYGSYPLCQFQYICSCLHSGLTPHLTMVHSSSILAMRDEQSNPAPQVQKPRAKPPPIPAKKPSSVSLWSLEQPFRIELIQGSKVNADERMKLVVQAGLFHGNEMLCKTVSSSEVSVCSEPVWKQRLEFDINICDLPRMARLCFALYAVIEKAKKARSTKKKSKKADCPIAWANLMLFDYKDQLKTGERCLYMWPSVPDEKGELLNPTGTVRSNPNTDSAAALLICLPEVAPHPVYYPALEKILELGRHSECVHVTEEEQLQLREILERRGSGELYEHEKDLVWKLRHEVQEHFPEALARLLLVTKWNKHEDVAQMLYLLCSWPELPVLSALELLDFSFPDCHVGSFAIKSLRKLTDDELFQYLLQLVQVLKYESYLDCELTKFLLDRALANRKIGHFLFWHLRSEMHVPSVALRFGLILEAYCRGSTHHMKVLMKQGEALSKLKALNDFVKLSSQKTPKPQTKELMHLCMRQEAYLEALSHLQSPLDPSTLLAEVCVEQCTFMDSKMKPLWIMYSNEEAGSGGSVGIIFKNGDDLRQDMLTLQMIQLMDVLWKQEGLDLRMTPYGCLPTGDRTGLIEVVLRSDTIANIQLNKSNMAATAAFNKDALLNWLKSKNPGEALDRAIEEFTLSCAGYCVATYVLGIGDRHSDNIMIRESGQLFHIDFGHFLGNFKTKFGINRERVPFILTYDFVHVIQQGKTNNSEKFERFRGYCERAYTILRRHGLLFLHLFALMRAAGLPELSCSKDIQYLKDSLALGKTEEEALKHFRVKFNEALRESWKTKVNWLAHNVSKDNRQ

`Nc1nc2cc(-c3nn(C4CC(O)C4)c4ncnc(N)c34)ccc2o1` (stereo unspecified): the IC50 was below 1 µM.

The record behind these values is ChEMBL document CHEMBL5726097, “Combination pharmaceutical compositions and uses thereof” (2019).
